# Apparent affinities of Ab-14 variants for a coronavirus HR2 peptide

Values reported by Li et al. 2023, doi:10.1038/s41467-023-39022-2 (FLAb copy).

Target peptide (SARS-CoV-2 spike, HR2 region): PDVDLGDISGINAS

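The starting antibody came from a phage panning campaign against this peptide. Designed CDR sequences, proposed from the first random library and measured here. Their group label is 14L_En_Gen (En: ensemble of fine-tuned language models; Gen: genetic algorithm). Affinity was read by AlphaSeq, a pooled yeast mating assay with surface-displayed partners. The frequency of each diploid, read from paired DNA barcodes, reflects how well the two displayed proteins bind. Each replicate has its own calibration line, from reference interactions of the BCL2 family. Each pool was mated in six replicate cultures.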

Ab-14 is the parent antibody, in scFv form: VH, then the linker GGGGSGGGGSGGGGS, then VL. The heavy chain is unchanged in all variants.
VH: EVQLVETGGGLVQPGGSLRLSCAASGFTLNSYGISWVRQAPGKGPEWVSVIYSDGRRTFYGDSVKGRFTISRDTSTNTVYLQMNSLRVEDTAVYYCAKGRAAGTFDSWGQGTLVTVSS
VL: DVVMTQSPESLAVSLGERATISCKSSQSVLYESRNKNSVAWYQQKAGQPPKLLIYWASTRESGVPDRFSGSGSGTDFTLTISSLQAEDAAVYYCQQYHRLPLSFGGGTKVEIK

Variants are written as CDR1, CDR2 and CDR3 of the light chain (limits as in the source). Parent: KSSQSVLYESRNKNSVA, WASTRES, QQYHRLPLS.
Scale: log10 of Kd in nM, estimated from mating counts; low values are strong binders.
A pair that was not seen in that replicate is written "nd"; this usually means weak binding, but a binder can also be missed.
A sequence measured in both rounds can read differently, since the two assays cover different ranges.
The authors' rule: three or more of the six replicates give a measured affinity, fewer mean a poor binder.
As a blank, each scFv also met three strains without target: over all light chain designs, 4% of these pairings were detected, typically at 2.64 and seldom below 1.59. For each scFv, signals with the empty controls are counted beside the result, with their mean in brackets.
The parent sequence was in this pool as ten entries: three were never detected, three once, and four in most replicates, with averages from 0.34 to 2.37.

| CDR-L1 | CDR-L2 | CDR-L3 | log10 Kd (nM) by replicate | control signals |
|---|---|---|---|---|
| KLYSVTSTEKVNGNNVA | EMETRER | QQYNRLPLS | nd / nd / nd / 2.08 / 3.46 / nd | 1 of 18 (1.83) |
| MVNGIMDHLSKQTNNVA | ETETRNE | QQYDRLPLS | 0.83 / 0.36 / 0.49 / 0.41 / 0.43 / 0.98 | 0 of 18 |
| IVSQLMVWGWHAKNSIA | EAQTRLN | QQYDRLPLF | 0.99 / 0.96 / 1.14 / 1.24 / 1.27 / 1.29 | 1 of 18 (4.74) |
| KLVQFMNRGTHHTSNIA | DAQNRTD | QQYARLPLA | 1.82 / 1.28 / 0.81 / 1.04 / 1.12 / 1.67 | 0 of 18 |
| TIGGTLMYGVRNRSNVA | EVSQRLN | QQYDRLPLV | 1.27 / 1.09 / 1.27 / 0.83 / 1.10 / 1.01 | 2 of 18 (4.32) |
| TISELYNQAIGMRNNVA | NNQTRED | QQYDRLPLS | nd / nd / nd / nd / nd / nd | 1 of 18 (2.70) |
| KIGMTLNQLQQKKNNVA | DLVHREN | QQYHRLPLS | 0.25 / 1.02 / 0.25 / 0.25 / 0.01 / 0.29 | 0 of 18 |
| IVSQLMLWGYKAKNSIA | EAQTRVN | QQYDRLPLI | 1.03 / 1.90 / 0.82 / nd / 0.59 / 1.37 | 0 of 18 |
| MISMVMNTMTRHGNNVA | DLTERED | QQYFRLPLS | nd / 1.68 / nd / nd / 1.93 / 2.93 | 1 of 18 (1.50) |
| QIGMLLNFESQKINNVA | QMETRVV | QQYDRLPLI | 1.04 / 1.18 / 1.11 / 1.44 / 1.06 / 0.98 | 1 of 18 (2.73) |
| QLSSITGHQSMIKNNVA | EMETREN | QQYDRLPLA | 2.08 / 0.74 / 0.18 / 1.11 / 0.55 / 0.80 | 0 of 18 |
| IVSQLMLWGHLAKNSIA | EAQTRVN | QQYDRLPLM | 2.09 / 1.35 / nd / 2.29 / 2.25 / 2.80 | 0 of 18 |
| KLSMTHELEHVNRNSVA | ELVTRIS | QQYNRLPLS | 1.25 / 0.59 / -0.12 / 0.48 / 0.94 / 0.43 | 0 of 18 |
| KLSGLMASSKFAKDSVA | ENNTRED | QQYDRLPLS | nd / nd / 2.04 / 1.90 / nd / 3.75 | 0 of 18 |
| QLSSITGHLSVEKNNVA | EMETREN | QQYDRLPLA | 1.90 / 1.66 / nd / 1.57 / nd / 0.24 | 1 of 18 (1.70) |
| IVSQLMLWGMRHKNSIA | EASTRLN | QQYERLPLF | 1.32 / nd / 0.24 / nd / nd / nd | 0 of 18 |
| KIGMTLNQLYQKNNNVA | DLVEREN | QQYHRLPLS | 0.35 / 0.25 / 0.00 / 0.04 / 0.22 / 0.13 | 0 of 18 |
| MIGESYGNMVMKKNSIA | DNTTRED | QQYDRLPLS | 1.52 / 3.32 / 2.44 / 3.28 / 2.44 / 2.50 | 4 of 18 (2.81) |
| MMSQVTGQGTRHRNNVA | QTSMREP | QQYDRLPLI | 0.70 / 1.29 / 0.97 / 0.92 / 0.76 / 1.38 | 0 of 18 |
| IVSQLMLWGYHAKNSIA | EAVTRLN | QQYDRLPLF | nd / nd / nd / nd / nd / nd | 0 of 18 |
| NISHFMDVTAKNINNVA | EQTTREK | QQYHHLPLS | 0.10 / -0.02 / 0.25 / 0.18 / 0.47 / 0.51 | 1 of 18 (2.24) |
| MLSQMWALGMKVKNSVA | QASMRFE | QQYERLPLI | 0.65 / 0.66 / nd / 1.09 / 0.88 / 1.55 | 0 of 18 |
| TIGAQLMYGMRNRSNVA | EVSERLN | QQYDRLPLL | 1.85 / 0.95 / 2.02 / 1.87 / 2.45 / 2.87 | 2 of 18 (3.48) |
| HMSMLTMMGMRHRNSVA | QMTMREN | QQYDRLPLM | 1.72 / 1.19 / 2.38 / 2.34 / nd / 1.62 | 0 of 18 |
| TISMHTSLFSQTINNVA | EVSTREQ | QQYDRLPLV | 0.47 / 0.96 / 1.14 / 0.41 / 0.99 / 0.42 | 0 of 18 |
| TISMHTSLFSQTINNVA | EVSTREQ | QQYDRLPLQ | 0.78 / 1.03 / 1.40 / 0.93 / 1.41 / 1.11 | 1 of 18 (2.76) |
| MVNGIMDHLSKNMNNVA | ETTTRNS | QQYDRLPLV | 0.73 / 0.78 / 0.35 / 1.32 / 1.41 / 1.20 | 0 of 18 |
| KVSYFNEQVTKHGSNVA | DNETRER | QQYFRLPLS | 0.55 / 0.52 / 0.56 / 0.33 / 0.42 / 0.47 | 3 of 18 (2.86) |
| KVSEFMRGLSRRKDSIA | DNNTRSN | QQYDRLPLS | 0.40 / 0.95 / -0.42 / 0.37 / 0.75 / 0.52 | 0 of 18 |
| TISQLYNMGQFAINSVA | QASLRNE | QQYDRLPLT | 0.29 / 1.37 / nd / 1.50 / 1.98 / nd | 0 of 18 |
| KISMLYNMTFEASNNVA | EMVTREK | QQYNRLPLS | 1.07 / 0.91 / 0.82 / 1.53 / 1.69 / 1.30 | 0 of 18 |
| MISQLYNMGSFAINSVA | QASERNI | QQYDRLPLI | 1.98 / 1.30 / 1.65 / 1.72 / 1.37 / 1.28 | 2 of 18 (2.61) |
| IIDQLMFHGNKKANSIA | QASMRFN | QQYHHLPLA | 2.14 / nd / nd / nd / 2.74 / nd | 0 of 18 |
| TISQLMNMGTFAINSVA | QAEIRNA | QQYDRLPLA | 1.56 / 0.72 / 1.00 / 1.47 / 1.01 / 0.92 | 1 of 18 (2.65) |
| KFSQMANTFSVSMNAVA | EMSTRES | QQYNRLPLA | 1.27 / 0.95 / 1.32 / 1.00 / 0.64 / 1.28 | 0 of 18 |
| KIGMTLNTLMHQKNNVA | DLVNREN | QQYFRLPLS | 1.51 / 0.95 / 0.50 / 0.30 / 0.36 / 0.93 | 0 of 18 |
| MISQVMNTLTRHGNNVA | DLTEREV | QQYFRLPLS | nd / nd / nd / nd / nd / 0.83 | 0 of 18 |
| TLYGLTNSMSKNKNNVA | EMSTREL | QQYDRLPLA | 0.58 / 0.30 / 0.33 / 0.40 / 0.87 / 0.55 | 0 of 18 |

Extract of 5 entries:

CDR-L1	CDR-L2	CDR-L3	log10 Kd (nM) by replicate	control signals
MISQVMNTLTRHGNNVA	DLTEREV	QQYFRLPLS	nd / nd / nd / nd / nd / 0.83	0 of 18
QLSSITGHLSVEKNNVA	EMETREN	QQYDRLPLA	1.90 / 1.66 / nd / 1.57 / nd / 0.24	1 of 18 (1.70)
IVSQLMVWGWHAKNSIA	EAQTRLN	QQYDRLPLF	0.99 / 0.96 / 1.14 / 1.24 / 1.27 / 1.29	1 of 18 (4.74)
KLYSVTSTEKVNGNNVA	EMETRER	QQYNRLPLS	nd / nd / nd / 2.08 / 3.46 / nd	1 of 18 (1.83)
MVNGIMDHLSKNMNNVA	ETTTRNS	QQYDRLPLV	0.73 / 0.78 / 0.35 / 1.32 / 1.41 / 1.20	0 of 18